Measurements published in PubChem BioAssay AID900 (National Center for Advancing Translational Sciences (NCATS), 2007).
Only a part is listed here, and it is no random draw. Activity calls are given as the source filed them. Calls come from the whole dose curve; as a rule, active = well fitted inhibition curve with a large enough effect; inconclusive = small, poorly fitted or top-dose-only effect; inactive = flat fitted curve, though single readings scatter.

biological target: Caspase-1 (Homo sapiens) (UniProt P29466); assay: qHTS Assay for Allosteric/Competitive Inhibitors of Caspase-1; settings: Caspase-1 enzyme, Ac-WEHD-AFC fluorogenic rate; at 57.5 µM (top of the series) unless noted;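 note: plate controls were vehicle for no effect and no substrate for full effect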
Source text: NIH Molecular Libraries Screening Centers Network [MLSCN]
NIH Chemical Genomics Center [NCGC]
PI Name: Dr. James Wells,
Dr. Enrique Perez-Paya, Dr.Janice Williams, Dr. Dennis Wolan, a person
The caspases (Cysteine Aspartyl Protease) comprise a related family of 14 dimeric proteases that are critical mediators of apoptosis (programmed cell death) and inflammation. The caspases represent an important class of drug targets for stroke, ischemia, cancer and inflammatory diseases. […] One goal of this project was to identify compounds that act as allosteric inhibitors via stabilizing the procaspase form of the enzyme. Previous work in Well's laboratory has shown that such allosteric inhibitors can be identified and these act by binding at the dimer interface of enzyme (Hardy, Lam et al., 2004).
The biochemical assay was configured using purified caspase 1 at a high enzyme concentration to promote formation of the homodimers and thus facilitate the identification of allosteric inhibitors. The overall goal was to identify reversible inhibitors with better drug-like properties than the currently available set of aspartyl-containing peptidomimetics that covalently bind the active site. Caspase 1 was assayed using the profluorescent substrate Ac-WEHD-AFC. After initiation of the assay with substrate the plates were rapidly read using an automated robotic system (Kalypsys, Inc.) to maintain consistent timing. A kinetic mode of detection was used where the initial rate was collected (estimated final product formation was ~10%). Compounds were screened as a concentration-titration series that ranged from 57 uM to 0.7 nM. Below is the protocol used for caspase 1.
NCGC Assay Protocol Summary:
Caspase 1 was prepared in buffer (50 mM HEPES pH 7.5, 50 mM KCl, 200 mM NaCl, 10 mM DTT, 0.1% CHAPS) at a concentration of 66.6 nM and 3 uL was dispensed to all wells using black solid Kalypsys 1536-well plates. 20 nL of DMSO containing compounds was added using a pin-tool (Kalypsys Inc.) to columns 5-48. Then 20 nL of DMSO solution from a control plate was added to columns 1-4. Controls were: Column 1, 16 point titration with each concentration in duplicate (1:1 dilutions in DMSO; final starting concentration was 57 uM) of the caspase 1 inhibitor Ac-WEHD-CHO (Alexis Biochemicals); Column 2, a 16 point titration with each concentration in duplicate of the free AFC fluorophore prepared in DMSO (Alexis Biochemicals), final starting was 40 uM; Column 3 neutral (DMSO only) control; Column 4: DMSO alone, to serve as a negative control (no substrate was added). Then 1 uL of 20 uM the substrate Ac-WEHD-AFC (Alexis Biochemicals) prepared in the same buffer was dispensed to all wells except columns 2 and 4 and the plates were immediately transferred (< 1 min) to the Viewlux. The plates were then exposed using 405 nm excitation/520 nm emission filters for 4 sec and read at 20 sec intervals for 3 min. Final enzyme concentration was 50 nM and the final substrate concentration was 5 uM.
Concentration-response curves were fitted to the data calculated from slope of the linear regression of fluorescent intensity versus time (the rate). The concentration-effect curves were then classified based on curve quality (r2), response magnitude and degree of measured activity. […] Inconclusive compounds had appreciable concentration-dependent effects on both the measured rate and the interpolated basal fluorescence intensity at the start of the reaction but where the basal fluorescent intensity was marginal (e.g. < 10-fold). Inconclusive compounds also encompass highly fluorescent compounds (>100-fold increases in fluorescent intensities values relative to controls) where artificial concentration-dependent decreases in the rate occurred at high compound concentrations due to fluorescent interferences.
Keywords: Caspase 1, proteases, profluorescent, MLSMR, MLSCN, NIH Roadmap, qHTS, NCGC

With `Cc1ccc(C)c(NP(C)(=O)Oc2ccccc2)c1` (stereo unspecified) as the compound, how does the activity change, negative = inhibition read?
The activity change, negative = inhibition was inactive: -0.627%.

Which activity change, negative = inhibition does the source give for `Cc1ccc([N+](=O)[O-])cc1[N+](=O)[O-]` here?
Its activity change, negative = inhibition is inactive: -1.47%.

How did the activity change, negative = inhibition turn out when `O=[N+]([O-])c1cccc([N+](=O)[O-])c1` was run?
The activity change, negative = inhibition was inactive: -3.7%.

`Cc1nc2ccc3ccccc3c2s1.O=[N+]([O-])c1cc([N+](=O)[O-])c(O)c([N+](=O)[O-])c1` was tested. Which activity change, negative = inhibition did it give?
The activity change, negative = inhibition was inactive: -5.06%.

`CCOP(C)(=S)SCC(=O)NC(C)C(=O)O` (stereo unspecified) was tested. Which activity change, negative = inhibition did it give?
The activity change, negative = inhibition was inactive: -2.7%.

With `CP(=O)(NC(=O)Nc1ccccc1)Oc1ccccc1` (stereo unspecified) as the compound, how does the activity change, negative = inhibition read?
The activity change, negative = inhibition was inactive: -0.181%.

`CP(=S)(Nn1cnnc1)Oc1ccccc1` (stereo unspecified) was tested. Which activity change, negative = inhibition did it give?
The activity change, negative = inhibition was inactive: -1.06%.

With `N1=C(c2nnc(-c3nn[nH]n3)nn2)NNN1` as the compound, how does the activity change, negative = inhibition read?
Its activity change, negative = inhibition is inactive: -1.29% [at 11.5 µM].

Which activity change, negative = inhibition does the source give for `COc1ccccc1OP(C)(=O)Nc1ccc(C)cc1` (stereo unspecified) here?
Its activity change, negative = inhibition is inactive: 2.05%.

With `Cc1ccc(NP(C)(=O)Oc2ccccc2)c(C)c1` (stereo unspecified) as the compound, how does the activity change, negative = inhibition read?
Its activity change, negative = inhibition is inactive: 0.969%.

Which activity change, negative = inhibition does the source give for `O=[N+]([O-])[O-].[NH4+]` here?
Its activity change, negative = inhibition is inactive: -1.98%.

Which activity change, negative = inhibition does the source give for `CP(=O)(Nc1ccccn1)Oc1ccccc1` (stereo unspecified) here?
The activity change, negative = inhibition was inactive: 3.02%.

Which activity change, negative = inhibition does the source give for `Cc1nc2ccc3ccccc3c2o1.O=[N+]([O-])c1cc([N+](=O)[O-])c(O)c([N+](=O)[O-])c1` here?
The activity change, negative = inhibition was inactive: -8.59%.

Which activity change, negative = inhibition does the source give for `COc1ccccc1OP(C)(=O)Nc1ccc(C)c(C)c1` (stereo unspecified) here?
The activity change, negative = inhibition was inactive: -2.28%.

With `CP(=O)(Oc1ccccc1)N1CCOC1=O` (stereo unspecified) as the compound, how does the activity change, negative = inhibition read?
Its activity change, negative = inhibition is inactive: -0.285%.

Which activity change, negative = inhibition does the source give for `COc1ccccc1OP(C)(=O)Nc1c(C)n(C)n(-c2ccccc2)c1=O` (stereo unspecified) here?
The activity change, negative = inhibition was inactive: -0.745%.

Which activity change, negative = inhibition does the source give for `OCCSCCO` here?
Its activity change, negative = inhibition is inactive: -1.02%.

How did the activity change, negative = inhibition turn out when `N#[O+].[C-]#N.[C-]#N.[C-]#N.[C-]#N.[C-]#N.[Fe+2].[Na+].[Na+]` was run?
The activity change, negative = inhibition was inactive: -3.42%.

Which activity change, negative = inhibition does the source give for `NNC(NN)NN.n1nc(-c2nn[nH]n2)n[nH]1` here?
Its activity change, negative = inhibition is inactive: -0.24% [at 11.5 µM].

With `Cc1ccccc1NP(C)(=O)Nc1ccccc1C` as the compound, how does the activity change, negative = inhibition read?
Its activity change, negative = inhibition is inactive: -0.802%.

With `CCN(CCCl)Cc1ccccc1C` as the compound, how does the activity change, negative = inhibition read?
The activity change, negative = inhibition was inactive: -0.339%.

Which activity change, negative = inhibition does the source give for `[NH4+].[O-][Cl+3]([O-])([O-])[O-]` here?
Its activity change, negative = inhibition is inactive: -0.99%.

With `CP(=O)(Nc1ccc2c(c1)OCCO2)Oc1ccccc1` (stereo unspecified) as the compound, how does the activity change, negative = inhibition read?
Its activity change, negative = inhibition is inactive: -1.25%.

With `CCOP(=O)(CC)OCC` as the compound, how does the activity change, negative = inhibition read?
Its activity change, negative = inhibition is inactive: 0.539%.

How did the activity change, negative = inhibition turn out when `CCOP(C)(=S)SCC(=O)NC(C)(CC)C(=O)O` (stereo unspecified) was run?
Its activity change, negative = inhibition is inactive: -1.24%.

Which activity change, negative = inhibition does the source give for `Cc1ccc([N+](=O)[O-])c([N+](=O)[O-])c1` here?
Its activity change, negative = inhibition is inactive: 1.02%.

How did the activity change, negative = inhibition turn out when `Cc1c([N+](=O)[O-])cccc1[N+](=O)[O-]` was run?
Its activity change, negative = inhibition is inactive: -0.37%.

With `CN(C)CCOC(=O)C(O)(c1ccccc1)C1CCCCC1` (stereo unspecified) as the compound, how does the activity change, negative = inhibition read?
The activity change, negative = inhibition was inactive: 0.194%.

Which activity change, negative = inhibition does the source give for `CCC(C)(OO)OOC(C)(CC)OO` (stereo unspecified) here?
The activity change, negative = inhibition was inactive: -2.2%.

`Cc1cccc([N+](=O)[O-])c1[N+](=O)[O-]` was tested. Which activity change, negative = inhibition did it give?
The activity change, negative = inhibition was inactive: -0.11%.

With `CP(=O)(Nc1ccccc1F)Oc1ccccc1` (stereo unspecified) as the compound, how does the activity change, negative = inhibition read?
The activity change, negative = inhibition was inactive: 1.38%.
